Some compounds may have been tested in ways that are not shown here.
System: tobacco leaf discs
Assay: Effect of opines on shoot formation in substrates without nitrogen
Type: cell-based
Settings: substrate without nitrogen, 1 mg/l BA

Measured: number of shoots per 9 leaf discs

Ammonium nitrate
> 50: 10 mM | 20 mM | 40 mM | 80 mM
